# Laboratory results published in US9371497B2, “THPE ethers” (Dow Global Technologies LLC, priority 2012, dated 2016).
# Settings: 0.1 grams THPE alkyl ether with 0.9 grams solvent; warmed to 60° C., cooled, freezer at −10° C., checked daily for crystallization; letters name the solvent mixtures
row,Substance,Solubility @ −10° C./7 Days
1,"4,4′,4″-(Ethane-1,1,1-triyl)tris(hexyloxy)benzene [n-C6H13]","A, B, C, D"
2,"4,4′,4″-(Ethane-1,1,1-triyl)tris(butoxy)benzene [n-C4H9]","A, B, C, D"
3,"4,4′,4″-(Ethane-1,1,1-triyl)tris(pentyloxy)benzene [n-C5H11]","A, B, C, D"
